Reference: PubChem BioAssay AID602162 (NMMLSC, 2011)
The entries are a selection whose mix differs from that of the whole data set. Calls of active or inactive are those of the source.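 How the source made its calls: active means fluorescence ratio to DMSO below 75%, the collection mean minus 3 SD; inconclusive means too few cells collected in the well; inactive means the rest.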

The chains behind the UniProt entries cited, without tags or fusion partners.
UniProt Q9NP58, whole entry: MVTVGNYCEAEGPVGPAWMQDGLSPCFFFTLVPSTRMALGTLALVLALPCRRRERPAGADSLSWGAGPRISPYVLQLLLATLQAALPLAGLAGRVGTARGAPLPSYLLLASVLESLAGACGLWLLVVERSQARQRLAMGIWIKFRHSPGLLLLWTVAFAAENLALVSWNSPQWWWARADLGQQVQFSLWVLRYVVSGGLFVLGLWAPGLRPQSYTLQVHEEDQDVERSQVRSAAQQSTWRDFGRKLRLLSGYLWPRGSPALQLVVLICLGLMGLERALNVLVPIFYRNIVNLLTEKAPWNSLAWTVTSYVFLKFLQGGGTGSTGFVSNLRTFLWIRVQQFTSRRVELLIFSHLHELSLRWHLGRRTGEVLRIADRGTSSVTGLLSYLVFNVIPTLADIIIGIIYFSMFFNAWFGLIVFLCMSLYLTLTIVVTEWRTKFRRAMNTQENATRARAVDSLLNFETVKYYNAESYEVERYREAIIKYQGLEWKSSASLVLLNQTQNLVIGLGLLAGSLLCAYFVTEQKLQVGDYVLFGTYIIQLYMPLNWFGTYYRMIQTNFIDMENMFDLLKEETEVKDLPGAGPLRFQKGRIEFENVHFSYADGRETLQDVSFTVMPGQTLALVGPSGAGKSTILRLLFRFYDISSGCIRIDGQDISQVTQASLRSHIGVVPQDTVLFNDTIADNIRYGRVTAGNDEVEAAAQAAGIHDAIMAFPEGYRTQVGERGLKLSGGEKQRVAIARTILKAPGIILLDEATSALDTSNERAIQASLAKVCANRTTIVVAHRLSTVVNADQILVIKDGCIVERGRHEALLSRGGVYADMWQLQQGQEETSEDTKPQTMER

These molecules were tested against ATP-binding cassette sub-family B member 6 (Homo sapiens) (UniProt Q9NP58) (assay: blockers of ABCB6-driven porphyrin uptake – K562-ABCB6 cells, flow cytometry, MLPCN library, primary screen (AID 602162;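 further: signal is porphyrin accumulated inside mitochondria; 100% equals median channel fluorescence of DMSO control wells; lower ratio means ABCB6 inhibition with less porphyrin fluorescence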)). Conditions: K562-ABCB6 porphyrin accumulation, 1 h, at 10 µM, stronger effect = lower value.

| SMILES | fluorescence ratio to DMSO |
| --- | --- |
| O=[N+]([O-])c1cc([N+](=O)[O-])c(Nc2ccccn2)c([N+](=O)[O-])c1 | inactive: 101% |
